Reference: ChEMBL document CHEMBL1145544, “Probing distal regions of the A2B adenosine receptor by quantitative structure-activity relationship modeling of known and novel agonists” (J Med Chem, 2008)

Target: T1, Adenosine receptor A2b (Homo sapiens) (UniProt P29275)
T1 sequence (whole entry): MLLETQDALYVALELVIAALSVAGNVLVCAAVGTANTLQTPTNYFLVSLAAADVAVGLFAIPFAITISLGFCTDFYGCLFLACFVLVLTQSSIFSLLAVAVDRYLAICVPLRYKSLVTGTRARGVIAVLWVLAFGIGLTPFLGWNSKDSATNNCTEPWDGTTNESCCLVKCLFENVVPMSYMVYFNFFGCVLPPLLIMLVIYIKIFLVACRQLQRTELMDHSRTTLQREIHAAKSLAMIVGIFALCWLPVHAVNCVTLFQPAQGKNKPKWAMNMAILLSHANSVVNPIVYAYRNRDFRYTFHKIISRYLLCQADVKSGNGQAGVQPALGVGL
Assay: Agonist activity human adenosine A2B receptor expressed in CHO cells assessed as stimulation of adenylate cyclase relative to NECA
Format: functional, cell-based
Outline: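 Stably transfected CHO cells; cAMP accumulation by enzyme immunoassay kit. Relative potency computed as pEC50(compound) minus pEC50(NECA) determined in the same publication.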

| Structure (SMILES) | Activity |
| --- | --- |
| OC[C@H]1O[C@@H](n2cnc3c(NC4CCCCC4)ncnc32)[C@H](O)[C@@H]1O | 1.82 |
| C[C@H](Cc1ccccc1)Nc1ncnc2c1ncn2[C@@H]1O[C@H](CO)[C@@H](O)[C@H]1O | -1.08 |
